{
  "sequences": {"note": "Amino acid sequences for entries named in this document (tags omitted).", "UniProt O75762, whole entry, looked up": "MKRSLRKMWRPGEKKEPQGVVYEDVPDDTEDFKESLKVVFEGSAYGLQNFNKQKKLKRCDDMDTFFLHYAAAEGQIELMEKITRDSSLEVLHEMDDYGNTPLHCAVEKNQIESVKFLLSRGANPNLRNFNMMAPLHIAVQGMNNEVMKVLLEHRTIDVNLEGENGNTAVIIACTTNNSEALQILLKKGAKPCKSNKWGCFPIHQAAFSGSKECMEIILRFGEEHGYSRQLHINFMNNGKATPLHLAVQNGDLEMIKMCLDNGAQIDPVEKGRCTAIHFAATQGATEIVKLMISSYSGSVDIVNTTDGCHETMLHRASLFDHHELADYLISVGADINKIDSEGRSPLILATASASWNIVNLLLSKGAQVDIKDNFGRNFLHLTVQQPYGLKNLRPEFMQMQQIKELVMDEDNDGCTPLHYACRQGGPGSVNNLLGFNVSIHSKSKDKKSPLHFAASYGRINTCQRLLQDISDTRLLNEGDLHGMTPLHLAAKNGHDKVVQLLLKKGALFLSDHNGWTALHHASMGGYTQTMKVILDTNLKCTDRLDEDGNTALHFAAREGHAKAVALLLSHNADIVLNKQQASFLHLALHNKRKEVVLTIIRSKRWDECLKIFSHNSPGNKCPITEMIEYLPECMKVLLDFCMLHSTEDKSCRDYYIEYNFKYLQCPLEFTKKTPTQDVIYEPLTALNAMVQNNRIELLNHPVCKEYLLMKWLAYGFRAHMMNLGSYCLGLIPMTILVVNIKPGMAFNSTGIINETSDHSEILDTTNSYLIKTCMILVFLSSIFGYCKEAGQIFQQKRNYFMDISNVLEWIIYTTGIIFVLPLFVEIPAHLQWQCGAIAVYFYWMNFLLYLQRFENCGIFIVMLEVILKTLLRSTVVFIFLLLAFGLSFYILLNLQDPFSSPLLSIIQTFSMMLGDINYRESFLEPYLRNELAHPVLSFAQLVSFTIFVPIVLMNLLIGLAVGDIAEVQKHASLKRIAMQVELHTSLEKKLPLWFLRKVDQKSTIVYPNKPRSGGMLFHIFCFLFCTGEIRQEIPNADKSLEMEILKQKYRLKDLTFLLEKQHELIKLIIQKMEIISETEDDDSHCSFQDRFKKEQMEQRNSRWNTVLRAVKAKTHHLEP"},
  "source": "BindingDB's records for 20806939",
  "target": "Transient receptor potential cation channel subfamily A member 1 (Homo sapiens, UniProt O75762)",
  "note": "pEC50: −log10 of the molar value.",
  "data": [
    {"smiles": "S=C=NCc1ccccc1", "values": [
      {"measurement": "pEC50", "result": 4.96}
    ]}
  ]
}
